Test results taken from patent US9938273B2 (Plexxikon Inc., priority 2015, dated 2018).

The chains behind the UniProt entries cited, without tags or fusion partners. Where a name states a change or a piece, a line headed by the entry shows the natural chain unless it says otherwise. Residues count along the entry.
UniProt P36888, whole entry D835Y: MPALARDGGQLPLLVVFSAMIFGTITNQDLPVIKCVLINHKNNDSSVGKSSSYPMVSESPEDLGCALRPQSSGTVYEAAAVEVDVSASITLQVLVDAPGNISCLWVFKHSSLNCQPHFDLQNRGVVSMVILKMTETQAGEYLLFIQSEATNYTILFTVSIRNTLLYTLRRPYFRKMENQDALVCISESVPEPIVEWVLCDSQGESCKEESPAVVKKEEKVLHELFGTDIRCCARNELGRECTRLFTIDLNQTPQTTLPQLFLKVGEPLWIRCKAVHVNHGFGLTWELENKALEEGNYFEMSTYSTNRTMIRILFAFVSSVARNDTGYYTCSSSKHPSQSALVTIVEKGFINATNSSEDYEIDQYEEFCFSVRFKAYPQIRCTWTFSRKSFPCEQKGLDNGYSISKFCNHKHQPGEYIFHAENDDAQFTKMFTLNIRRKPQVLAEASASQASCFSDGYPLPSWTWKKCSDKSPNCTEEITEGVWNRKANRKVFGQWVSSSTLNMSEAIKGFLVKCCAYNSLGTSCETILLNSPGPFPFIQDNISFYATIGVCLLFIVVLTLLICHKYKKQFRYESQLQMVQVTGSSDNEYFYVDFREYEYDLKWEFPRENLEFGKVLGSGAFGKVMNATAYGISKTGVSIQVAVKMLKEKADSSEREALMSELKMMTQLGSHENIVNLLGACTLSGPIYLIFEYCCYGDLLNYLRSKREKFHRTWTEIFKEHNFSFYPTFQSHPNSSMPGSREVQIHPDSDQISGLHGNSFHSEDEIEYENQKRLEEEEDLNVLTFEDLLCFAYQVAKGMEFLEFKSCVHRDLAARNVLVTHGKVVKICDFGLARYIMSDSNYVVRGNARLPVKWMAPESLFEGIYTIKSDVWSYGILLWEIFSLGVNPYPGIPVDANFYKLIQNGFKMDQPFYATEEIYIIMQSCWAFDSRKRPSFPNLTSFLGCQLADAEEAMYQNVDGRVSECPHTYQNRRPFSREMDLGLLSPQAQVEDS
UniProt P36888, 27-993 D835Y limits assumed: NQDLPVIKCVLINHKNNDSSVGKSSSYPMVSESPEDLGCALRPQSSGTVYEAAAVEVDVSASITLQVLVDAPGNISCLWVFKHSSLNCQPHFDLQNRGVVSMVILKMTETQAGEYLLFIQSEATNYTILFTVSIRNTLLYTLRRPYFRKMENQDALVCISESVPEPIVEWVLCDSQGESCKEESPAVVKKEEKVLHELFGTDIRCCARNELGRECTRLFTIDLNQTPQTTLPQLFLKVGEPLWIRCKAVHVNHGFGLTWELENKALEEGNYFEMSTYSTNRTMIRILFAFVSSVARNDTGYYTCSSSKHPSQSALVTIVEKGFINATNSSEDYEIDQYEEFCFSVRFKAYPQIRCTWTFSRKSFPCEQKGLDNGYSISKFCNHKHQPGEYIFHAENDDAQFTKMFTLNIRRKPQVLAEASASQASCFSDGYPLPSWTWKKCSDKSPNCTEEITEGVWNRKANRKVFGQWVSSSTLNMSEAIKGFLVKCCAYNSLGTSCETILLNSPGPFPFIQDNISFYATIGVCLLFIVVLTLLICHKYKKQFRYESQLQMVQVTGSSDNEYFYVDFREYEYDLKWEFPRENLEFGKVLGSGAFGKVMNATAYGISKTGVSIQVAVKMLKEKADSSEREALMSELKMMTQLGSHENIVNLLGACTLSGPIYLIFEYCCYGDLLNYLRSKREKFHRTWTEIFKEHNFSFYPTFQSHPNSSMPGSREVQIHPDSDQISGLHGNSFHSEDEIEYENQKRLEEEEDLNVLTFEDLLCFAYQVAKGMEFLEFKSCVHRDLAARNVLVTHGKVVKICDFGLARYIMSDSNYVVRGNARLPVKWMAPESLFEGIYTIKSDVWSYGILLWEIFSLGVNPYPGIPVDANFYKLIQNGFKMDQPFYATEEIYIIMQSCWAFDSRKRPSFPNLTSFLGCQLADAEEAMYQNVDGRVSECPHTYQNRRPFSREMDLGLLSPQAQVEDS
UniProt P36888, whole entry, stated change not applied: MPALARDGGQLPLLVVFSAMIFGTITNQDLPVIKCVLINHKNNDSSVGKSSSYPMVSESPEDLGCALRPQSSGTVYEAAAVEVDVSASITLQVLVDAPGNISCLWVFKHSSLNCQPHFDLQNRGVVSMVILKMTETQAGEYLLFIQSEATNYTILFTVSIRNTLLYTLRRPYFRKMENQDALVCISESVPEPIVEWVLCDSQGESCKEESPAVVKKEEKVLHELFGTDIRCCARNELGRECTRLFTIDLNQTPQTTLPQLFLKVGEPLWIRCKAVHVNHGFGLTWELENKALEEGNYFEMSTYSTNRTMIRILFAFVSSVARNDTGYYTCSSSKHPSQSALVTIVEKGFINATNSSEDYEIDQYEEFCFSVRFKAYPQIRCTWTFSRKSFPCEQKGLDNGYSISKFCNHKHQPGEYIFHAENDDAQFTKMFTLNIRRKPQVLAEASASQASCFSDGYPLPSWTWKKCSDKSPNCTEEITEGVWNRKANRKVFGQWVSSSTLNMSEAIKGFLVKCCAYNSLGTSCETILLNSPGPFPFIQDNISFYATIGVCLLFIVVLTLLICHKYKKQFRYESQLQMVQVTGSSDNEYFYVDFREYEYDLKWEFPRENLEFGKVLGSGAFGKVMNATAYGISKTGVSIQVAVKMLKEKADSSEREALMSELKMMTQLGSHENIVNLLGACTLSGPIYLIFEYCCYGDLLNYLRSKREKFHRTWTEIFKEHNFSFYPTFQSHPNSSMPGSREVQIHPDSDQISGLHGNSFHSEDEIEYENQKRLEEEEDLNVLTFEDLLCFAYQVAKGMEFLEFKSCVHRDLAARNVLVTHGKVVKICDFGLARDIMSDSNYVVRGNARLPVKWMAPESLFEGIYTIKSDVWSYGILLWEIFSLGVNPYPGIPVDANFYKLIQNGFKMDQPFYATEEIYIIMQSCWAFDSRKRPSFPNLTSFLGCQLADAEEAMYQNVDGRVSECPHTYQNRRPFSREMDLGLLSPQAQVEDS
UniProt P10721, 26-976 limits assumed: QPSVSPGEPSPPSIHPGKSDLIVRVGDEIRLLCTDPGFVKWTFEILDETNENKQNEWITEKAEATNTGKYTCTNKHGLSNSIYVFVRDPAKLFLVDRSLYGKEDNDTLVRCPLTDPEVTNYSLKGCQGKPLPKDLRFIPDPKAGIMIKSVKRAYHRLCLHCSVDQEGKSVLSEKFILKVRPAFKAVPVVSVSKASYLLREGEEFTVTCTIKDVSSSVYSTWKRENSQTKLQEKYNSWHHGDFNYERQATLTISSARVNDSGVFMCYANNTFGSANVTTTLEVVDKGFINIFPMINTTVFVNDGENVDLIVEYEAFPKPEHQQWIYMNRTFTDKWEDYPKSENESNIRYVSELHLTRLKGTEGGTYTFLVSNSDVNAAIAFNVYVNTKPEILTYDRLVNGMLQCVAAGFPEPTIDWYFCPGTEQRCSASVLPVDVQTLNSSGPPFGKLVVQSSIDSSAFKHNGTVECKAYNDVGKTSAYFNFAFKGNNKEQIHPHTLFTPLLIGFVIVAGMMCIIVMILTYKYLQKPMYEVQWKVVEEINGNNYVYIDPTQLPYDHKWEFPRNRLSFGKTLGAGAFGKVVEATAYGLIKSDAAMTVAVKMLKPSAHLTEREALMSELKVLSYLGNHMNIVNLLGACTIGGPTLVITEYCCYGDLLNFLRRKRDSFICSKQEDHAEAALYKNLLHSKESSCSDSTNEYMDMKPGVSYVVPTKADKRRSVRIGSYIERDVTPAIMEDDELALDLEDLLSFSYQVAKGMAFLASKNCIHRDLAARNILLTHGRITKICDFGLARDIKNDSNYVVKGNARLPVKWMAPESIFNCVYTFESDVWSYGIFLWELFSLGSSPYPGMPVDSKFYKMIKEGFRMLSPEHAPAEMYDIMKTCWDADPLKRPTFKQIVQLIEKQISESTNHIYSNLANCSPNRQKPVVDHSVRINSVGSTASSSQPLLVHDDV

Assays:
FLT3-D835Y = FLT3-D835Y (Homo sapiens, UniProt P36888, D835Y); assay: AlphaScreen kinase assay with recombinant enzyme, FLT3-D835Y; settings: read-out: FLT3 D835Y 8pt GMean IC50
Method: (§1) In order to determine the effect of compounds on FLT3 catalytic activity, kinase assays using recombinant enzymes and AlphaScreen® technology have been established. The catalytic activity of c-kit activity was also measured to determine selectivity of the compounds. When the kinases are catalytically active, they phosphorylate a biotinylated peptide substrate on tyrosine residues. Using AlphaScreen® technology, the ability of the compounds to affect the catalytic activity of the kinases can be measured quantitatively. The peptide substrate is immobilized by the AlphaScreen® Streptavidin Donor beads and, upon phosphorylation by a tyrosine kinase, can bind to AlphaScreen® Anti-Phosphotyrosine (PY20) Acceptor beads. Upon excitation of these beads with laser light at 680 nm, singlet oxygen is produced. This singlet oxygen is rapidly quenched, unless the AlphaScreen® Anti-Phosphotyrosine (PY20) Acceptor beads are in close proximity, in which case a proximity signal can be measured at 580 nm. In the presence of catalytic activity, there is a very strong proximity signal. Selective kinase inhibitors affect a decrease in this proximity signal through a decrease in tyrosine phosphorylation of the peptide substrate.
(§2) The assay was performed as summarized below.
(§3) Poly (Glu4-Tyr) Peptide, biotin conjugate [Biotin-GG(EEEEY)10EE] (SEQ ID NO: 4) […]
(§4) Read plate on Wallac EnVision™ 2103 Multilabel Reader.

[1] = target: BA/F3-FLT3-ITD + D835Y cells (Homo sapiens, UniProt P36888, D835Y, cells depend on it, form not given); assay: Cell proliferation assay (CellTiter-Glo), engineered BA/F3 cells; settings: read-out: BaF3_FLT3 ITD/D835Y 3d-Growth: IC50, BaF3 FLT3 ITD/D835Y cells
Description: (§5) The FLT3 inhibitors may be assessed using the MOLM-14, Acute Myeloid Leukemia cell line that endogenously expresses FLT3 ITD or derivatives of the human FLT3 AML cell line which acquired the D835Y (activation loop) of F691L (gatekeeper) mutation after selection in escalating doses of the FLT3 Inhibitor AC220. FLT3 inhibitors may also be assessed using cells that are engineered to express mutant FLT3. For engineered cells, murine Ba/F3 cells were transfected with full-length FLT3 ITD/D835Y mutations. The parental BA/F3 cells are dependent upon Interleukin-3 (IL-3) for survival, and introduction of the FLT3 constructs rendered these cells dependent upon FLT3 kinase activity when cultured in the absences of IL-3. […] This inhibition is measured as a function of compound concentration to asses IC50 values. […]
(§6) Cells were seeded at 1×10^4 cells per well of a 96 well cell culture plate in 50 μl of cell culture medium. […] The plates were read on a Tecan M1000 using Luminescence protocol modified to read 0.1 s per well. The luminescence reading assesses the ATP content, which correlates directly with cell number such that the reading as a function of compound concentration was used to determine the IC50 value.

c-KIT = c-KIT (Homo sapiens, UniProt P10721); assay: AlphaScreen kinase assay with recombinant enzyme, c-KIT; settings: read-out: KIT 100ATP 8pt GMean IC50
Method: as §1, §2, §3, §4

FLT3-ITD = FLT3-ITD (Homo sapiens, UniProt P36888); assay: AlphaScreen kinase assay with recombinant enzyme, FLT3-ITD; settings: read-out: FLT3_ITD 8pt: IC50
Method: as §1, §2, §3, §4

[2] = tested on: MOLM-14 D835Y cells, FLT3 ITD and FLT3 D835Y; assay: Cell proliferation assay (CellTiter-Glo), MOLM-14 D835Y; settings: read-out: MOLM-14 D835Y 3d-Growth GMean IC50
Description: as §5, §6

IC50 (c-KIT) [µM]	SMILES	IC50 (FLT3-D835Y) [µM]	GI50 [1] [µM]	IC50 (FLT3-ITD) [µM]	IC50 [2] [µM]
0.0001 to 10	NC1CCN(C(=O)c2cccc(-c3cnc4[nH]c(-c5ccccc5)cc4c3)c2)CC1	0.0001 to 10	0.0001 to 10	0.0001 to 10	
	N#CC1CCN(C(=O)c2cccc(-c3cnc4nc(-c5ccccc5)[nH]c4c3)n2)C1 (centres unmarked)	0.0001 to 10	0.0001 to 10	0.0001 to 10	0.0001 to 10
